Chains of the proteins cited; added tags and fusions are not shown. A line that says so, or that is headed by a name, gives the form on record, which may keep a tag or linker. Residues count along the entry.
glucose-6-phosphate glycated human hemoglobin (Hb-AGE), P69905, UniProt P69905, 2-142, chain 1 of 2: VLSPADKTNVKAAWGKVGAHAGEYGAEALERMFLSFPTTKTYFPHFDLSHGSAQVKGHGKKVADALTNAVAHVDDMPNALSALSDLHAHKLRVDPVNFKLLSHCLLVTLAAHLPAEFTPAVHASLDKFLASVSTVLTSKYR
glucose-6-phosphate glycated human hemoglobin (Hb-AGE), P69905, one chain, as listed by the source, chain 2 of 2: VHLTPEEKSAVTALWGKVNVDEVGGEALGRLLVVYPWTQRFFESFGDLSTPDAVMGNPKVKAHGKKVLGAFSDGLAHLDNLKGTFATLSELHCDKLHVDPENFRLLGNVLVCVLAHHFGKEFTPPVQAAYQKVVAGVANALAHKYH

According to patent publication US20090202980:

Target: glucose-6-phosphate glycated human hemoglobin (Hb-AGE), P69905

B1: human factor XII (Hageman factor) (protein)
chain: IPPWEAPKEHKYKAEEHTVVLTVTGEPCHFPFQYHRQLYHKCTHKGRPGPQPWCATTPNFDQDQRWGYCLEPKKVKDHCSKHSPCQKGGTCVNMPSGPHCLCPQHLTGNHCQKEKCFEPQLLRFFHKNEIWYRTEQAAVARCQCKGPDAHCQRLASQACRTNPCLHGGRCLEVEGHRLCHCPVGYTGAFCDVDTKASCYDGRGLSYRGLARTTLSGAPCQPWASEATYRNVTAEQARNWGLGGHAFCRNPDNDIRPWCFVLNRDRLSWEYCDLAQCQTPTQAAPPTPVSPRLHVPLMPAQPAPPKPQPTTRTPPQSQTPGALPAKREQPPSLTRNGPLSCGQRLRKSLSSMTRVVGGLVALRGAHPYIAALYWGHSFCAGSLIAPCWVLTAAHCLQDRPAPEDLTVVLGQERRNHSCEPCQTLAVRSYRLHEAFSPVSYQHDLALLRLQEDADGSCALLSPYVQPVCLPSGAARPSETTLCQVAGWGHQFEGAEEYASFLQEAQVPFLSLERCSAPDVHGSSILPGMLCAGFLEGGTDACQGDSGGPLVCEDQAAERRLTLQGIISWGSGCGDRNKPGVYTDVAYYLAWIREHTVS
auto-activation of factor XII (S-2222 conversion): FP13 K157G and Hb-AGE have a potency to induce auto-activation that is similar to the established surface activator DXS500k
